Data: patent publication US12599676B2, “Cytotoxic imidazo[1,2-A]pyridine compounds and their use in therapy” (MyricX Pharma Limited, priority 2022, dated 2026)

Experiments:
NCI-N87 tumour cells = experiment: Subcutaneous NCI-N87 human gastric xenograft model; assay type: in vivo, BALB/c nude mice; details: for tumour volumes compared to vehicle alone (Group 1): all concentrations (2.5 mg/kg or 5 mg/kg), Isotype control ADC 5 mg/kg
Experimental: In this study, 143 mice were inoculated subcutaneously in the right flank region with 1×10^7 viable NCI-N87 tumour cells resuspended in 0.1 mL of PBS mixed with Matrigel (1:1) for tumour development. 102 mice were assigned to 9 treatment groups on study day 0 when tumour volumes averaged 168.08 mm^3. […] The study was terminated on study Day 28.
Tumour volumes in mice were measured three times per week and tumour volume was calculated using the formula 0.5 (L×W2).
Tumour Growth Inhibition, ΔTGI %=((mean(C)−mean (CO))−(mean(T)−mean(TO)))/(mean(C)−mean(CO))*100% where T is the mean tumour volume of the treated group on the measurement day and TO is the mean tumour volume on Study Day 0. C is the mean tumour volume of the control Group 1 mice on the measurement day and CO is the mean tumour volume on Study Day 0.

[1] = Body weight in NCI-N87 xenograft study; assay type: in vivo, BALB/c nude mice
Experimental: During the study, body weights were measured three times weekly for all animals. Animals were given Diet Gel for the entire duration on the study. The mean body weights for each group during the dosing phase are presented in FIGS. 13A (2.5 mg/kg) and 13B (5 mg/kg).

[2] = system: BT474 breast cancer cells; experiment: Orthotopic BT474 breast cancer xenograft model; assay type: in vivo, NOD/SCID mice
Experimental: NOD/SCID mice were implanted with estrogen pellets (17β-estradiol, 60 day release, 0.36 mg) subcutaneously in the right flank one day before the tumour inoculation. On day −8 each mouse was then injected in the right mammary fat pad with 1×10^7 viable BT474 breast cancer cells resuspended in 0.2 mL of Phosphate Buffered Saline mixed with matrigel (1:1). Mice were assigned to treatment groups when tumour volumes averaged 149.78 mm^3 on study day 0. […] The study was terminated on Study Day 35.
Each group was comprised of 10 mice. Tumour volumes in mice were measured three times per week and tumour volume was calculated using the formula 0.5 (L×W^2). The mean tumour volumes (+SEM) for each study group at each measurement are shown in FIGS. 7 and 8 plotted as Last Observation Carried Forward. Statistical analyses were carried out on tumour readings for Groups 1, 2, 3, 4 and 5 up to Study Day 23 (after this point >50% of the animals within one of the study groups were lost; Group 2) using two-way ANOVA, or a Mixed-Effects model was fitted when values were missing from groups (PRISM GraphPad Software Inc.). Statistical analysis of Group 6 was conducted until day 12 (at this point the study was terminated due to the significant loss of observed body weight). […]

[3] = Body weight in BT474 xenograft study; assay type: in vivo, NOD/SCID mice; details: trastuzumab or ADC Example 1 2.5 or 5 mg/kg; Example 12 2 mg/kg (Group 6)
Experimental: During the study, body weights were measured three times weekly for all animals. Animals were given Diet Gel for the entire duration on the study.

Substance | TGI study day 28 (NCI-N87 tumour cells; 2.5 mg/Kg IV QW × 2 weeks) [%] | TGI study day 28 (NCI-N87 tumour cells; 5 mg/Kg IV QW × 2 weeks) [%] | tumour volumes compared to vehicle alone (Group 1) (NCI-N87 tumour cells) | tumour volume compared to trastuzumab 2.5 mg/kg (Group 2) (NCI-N87 tumour cells; test article 2.5 mg/kg) | tumour volume compared to ADC Example 1 2.5 mg/kg (Group 4) (NCI-N87 tumour cells; test article 5 mg/kg) | tumour volume compared to trastuzumab 2.5 mg/kg (Group 2) (NCI-N87 tumour cells; test article 5 mg/kg) | tumour volume compared to trastuzumab deruxtecan 2.5 mg/kg (Group 6) (NCI-N87 tumour cells; test article 5 mg/kg) | Significant body weight loss (>10%) ([1]; 2.5 mg/Kg (Group 2)) | Significant body weight loss (>10%) ([1]; 5 mg/Kg (Group 3)) | Tumor growth inhibition % on day 23 ([2]; 2.5 mg/kg IV once per week for four weeks) [%] | Tumor growth inhibition % on day 23 ([2]; 5 mg/kg IV once per week for four weeks) [%] | body weights compared to vehicle control [3]
trastuzumab deruxtecan | 71.66 | 140.71 | significant decrease | significantly higher tumour volumes | no significant difference | no significant difference | significant decrease | – | – | – | – | –
trastuzumab: antibody that binds HER2; heavy chain SEQ ID NO: 2, light chain SEQ ID NO: 1 | 123.08 | 167.70 | significant decrease | – | – | significant decrease | – | one animal | one animal | 3.6 | 46 | did not differ significantly from the vehicle control
